The list shows a part of the results, in another mix than the full data. Calls of active or inactive are those of the source.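 The calls were made as follows: active = signal enhancement of 30% or more; inactive = the rest.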
target: E3 ubiquitin-protein ligase Mdm2 (Homo sapiens) (UniProt Q00987); assay: increase of MDM2 autoubiquitination reporter luminescence – cell-based, 1536-well, MDM2 E3 ligase inhibitor project, primary screen (AID 1230); conditions: cell-based MDM2 ubiquitination luciferase reporter, 2 h; at 5 µM; stronger effect = higher value; 0 = plate control, 100 = twice control, blank-subtracted;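 also: luminescence tracks abundance of the self-degrading MDM2-luciferase fusion protein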
Summary of the method: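 System: stable MDM2–luciferase fusion reporter cells / Input: 2000 cells seeded into each well / Schedule: 4 h settle plus 2 h compound, 37 °C / Compound: single-point 5 µM / Buffer or medium: cells held in DMEM / Benchmarks: control and blank well means / Evaluation: percent signal gain over controls, blank-subtracted / Measured by: luciferase luminescence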

Protein sequences, listed by entry. Tags and fused reporters are not part of them.
UniProt Q00987, whole entry, looked up: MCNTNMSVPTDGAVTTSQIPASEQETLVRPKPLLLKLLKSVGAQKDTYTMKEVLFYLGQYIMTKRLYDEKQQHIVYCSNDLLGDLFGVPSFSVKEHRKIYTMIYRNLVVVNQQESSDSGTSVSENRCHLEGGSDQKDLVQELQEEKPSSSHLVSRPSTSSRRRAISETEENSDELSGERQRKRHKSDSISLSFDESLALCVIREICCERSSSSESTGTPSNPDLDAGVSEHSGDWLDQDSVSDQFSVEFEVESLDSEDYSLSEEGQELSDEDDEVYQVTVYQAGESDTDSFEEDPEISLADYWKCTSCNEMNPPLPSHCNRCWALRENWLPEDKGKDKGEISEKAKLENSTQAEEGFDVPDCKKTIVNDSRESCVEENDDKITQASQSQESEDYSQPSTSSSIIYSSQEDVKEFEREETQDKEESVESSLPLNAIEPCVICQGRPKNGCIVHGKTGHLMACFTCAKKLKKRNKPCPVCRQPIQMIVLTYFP

SMILES | signal enhancement
Nc1cc(N)c2nonc2c1[N+](=O)[O-] | inactive: -10.3%
CC(C)CC(=O)NC(Sc1ccc(Cl)cc1)C(Cl)(Cl)Cl (stereo unspecified) | inactive: -19.1%
Oc1ccccc1CNc1ccccn1 | inactive: -6.05%
O=C(NC(Sc1ccncn1)C(Cl)(Cl)Cl)c1ccccc1 (stereo unspecified) | inactive: -1.06%
Cc1c2non([O-])c-2c(C)[n+](=O)[n+]1[O-] | inactive: 16.5%
COc1ccccc1OP(=O)(Nc1ccc(C)cn1)Oc1ccccc1OC | inactive: -16.6%
Cc1ccc(OP(=O)(Nc2nccs2)Oc2ccc(C)cc2)cc1 | inactive: -5.72%
CN1CCCC(OC(=O)C(c2ccccc2)c2ccccc2)C1 (stereo unspecified) | inactive: -12.8%
Clc1ccc(Cl)c(NC2=NCC(CBr)S2)c1 (stereo unspecified) | inactive: -7.95%
NC(=O)c1cc([N+](=O)[O-])cc([N+](=O)[O-])c1N | inactive: 15.5%
Cc1ccc(N/C(=N/P(=O)(N2CCOCC2)N2CCOCC2)N2CCOCC2)cc1 | inactive: 1.06%
CCN(N=Nc1nonc1N)c1nonc1N | inactive: -5.79%
Nc1cccc2ccc([As](=O)(O)O)cc12 | inactive: -14.3%
Cc1cc(SC(NC(=O)c2ccc(F)cc2)C(Cl)(Cl)Cl)ncn1 (stereo unspecified) | inactive: -8.98%
CCOP(=O)(Nc1ccccc1)OCC | inactive: -17.7%
Cc1ccc(NP(=O)(Oc2ccccc2F)Oc2ccccc2F)nc1 | inactive: -7.19%
CC(=O)Nc1ccc([As](=O)(O)O)cc1 | inactive: -7.33%
O=C(O)c1ccccc1[As](=O)(O)O | inactive: -12.1%
O=P(Nc1nc2ccc(Cl)cc2s1)(c1ccccc1)c1ccccc1 | inactive: -14.3%
O=[N+]([O-])c1cccc(NC2=NCC(CBr)S2)c1 (stereo unspecified) | inactive: -21.4%
O=C(O)CNc1ccc([As](=O)(O)O)cc1 | inactive: -12.8%
CC(C)(C)C(=O)NC(Sc1ccncn1)C(Cl)(Cl)Cl (stereo unspecified) | inactive: -5.17%
O=[N+]([O-])c1ncn(CCn2ncnc2[N+](=O)[O-])n1 | inactive: -12%
O=C(Nc1cc([As](=O)(O)O)ccc1O)c1ccccc1 | inactive: -14.2%
CC(C)=N/N=C(\N)N[N+](=O)[O-] | inactive: -9.47%

SMILES | signal enhancement
CN(C)C(=O)OCCc1n(C)cc[n+]1C | inactive: 9.69%
CC1CCN(C(=O)Oc2c(Cl)cc(Cl)c3cccnc23)CC1 | inactive: 6.37%
Nc1ccc([As](=O)(O)c2ccc(N)cc2)cc1 | inactive: -26%
C[N+]1=C2C=CC=CC=C2SC12C([N+](=O)[O-])=CC([N+](=O)[O-])=C[C-]2[N+](=O)[O-] (stereo unspecified) | inactive: -8.48%
CCN(/C(=N/P(=O)(N1CCOCC1)N1CCOCC1)N1CCOCC1)c1ccc(OC)cc1 | inactive: 0.95%
CC(=O)N1C2C3N(C(C)=O)C1C1N(C(C)=O)C(C(N1C(C)=O)N3C(C)=O)N2C(C)=O | inactive: -20%
O=[N+]([O-])c1cccc2n[nH]nc12 | inactive: -15.4%
Cc1ccc(NP(=O)(Oc2ccccc2)Oc2ccccc2)nc1 | inactive: -20.1%
O=[N+]([O-])c1cc([N+](=O)[O-])c(CCNc2ccccc2)c([N+](=O)[O-])c1 | inactive: -12.5%
CCc1nc2c(n1)c1c(non1O)c1c2no[n+]1[O-] | inactive: -29%
COc1ccc(C2=NCC(CBr)S2)cc1 (stereo unspecified) | inactive: -6.99%
c1nnnn1CCn1cnnn1 | inactive: 3.71%
O=P(Nc1nccs1)(c1ccccc1)c1ccccc1 | inactive: 8.81%
CC(C)C(=O)NC(Sc1ccccc1)C(Cl)(Cl)Cl (stereo unspecified) | inactive: -6.36%
C(Cc1nn[nH]n1)Cc1nn[nH]n1 | inactive: -1.3%
Nc1ccc([As](=O)(O)c2ccc([N+](=O)[O-])cc2)cc1 | inactive: -7%
O=C(OC1CN2CCC1CC2)c1cccc(Cl)c1 (stereo unspecified) | inactive: -1.95%
O=[N+]([O-])c1ncn(CCn2cnc([N+](=O)[O-])n2)n1 | inactive: -1.31%
CC(=O)NC(SC(=S)N(C)C)C(Cl)(Cl)Cl (stereo unspecified) | active: 57.4%
O=[As](O)(c1ccccc1)c1ccc(O)cc1 | inactive: -7.87%
O=P(Nc1nc2ccccc2s1)(c1ccccc1)c1ccccc1 | inactive: -1.9%
C[C@H]1OP(=O)(Oc2ccccc2)[C@H](O)[C@H](O)[C@H]1N=[N+]=[N-] (stereo partly specified) | inactive: 0.17%
O=P(Nc1ccccn1)(c1ccc(Br)cc1)c1ccc(Br)cc1 | inactive: -4.24%
Cc1ccccc1OP(=O)(Nc1ccccn1)Oc1ccccc1C | inactive: 2.3%
O=c1c2cc([N+](=O)[O-])ccc2[nH]c2c([N+](=O)[O-])cc([N+](=O)[O-])cc12 | inactive: -57.6%

SMILES | signal enhancement
CN(C)C(=O)Oc1noc2ccccc12 | inactive: 1.65%
COC(=O)c1cc2c(s1)N=C(c1ccccc1)N(C)P2(=O)N1CCOCC1 (stereo unspecified) | inactive: -8.82%
Cc1ccc(OP(=O)(Nc2ccccn2)Oc2ccc(C)cc2)cc1 | inactive: -4.39%
CC(=O)NC(SC(=S)N(CC(C)C)CC(C)C)C(Cl)(Cl)Cl (stereo unspecified) | inactive: -87.3%
CCC(=O)N1C2C3N(C(=O)CC)C1C1N(C(=O)CC)C(C(N1C(=O)CC)N3C(=O)CC)N2C(=O)CC | inactive: -50.4%
O=C(NC1CCS(=O)(=O)C1)NP(=S)(Oc1ccccc1)Oc1ccccc1 (stereo unspecified) | inactive: -7.16%
CCNC(=S)/N=C(\N)N[N+](=O)[O-] | inactive: -9.77%
c1ccc(-c2nn[nH]n2)c(-c2nn[nH]n2)c1 | inactive: 11.7%
CCOC(=O)NC(Sc1ccccc1)C(Cl)(Cl)Cl (stereo unspecified) | inactive: -20.4%
Cc1ccc(NP(=O)(Oc2cccc(C)c2)Oc2cccc(C)c2)nc1 | inactive: -11.9%
CC(=O)Nc1ccc([As](=O)(O)O)c(O)c1 | inactive: -9.44%
CC(=O)Nc1ccc(Oc2c([N+](=O)[O-])cc([N+](=O)[O-])cc2[N+](=O)[O-])cc1 | inactive: -5.04%
C[C@H]1OP(=O)(Oc2ccccc2)C[C@@H]2O[C@@H]21 (stereo partly specified) | inactive: 7.71%
C[C@@H]1C=CCP(=O)(Oc2ccccc2)O1 (stereo partly specified) | inactive: 16.2%
CC(C)(C)C(=O)NC(Sc1ccccc1)C(Cl)(Cl)Cl (stereo unspecified) | inactive: -12.1%
O=P1(Nc2nc3ccc(Cl)cc3s2)COc2ccccc2O1 (stereo unspecified) | inactive: -11.8%
CCOc1ccc(C2=NCC(CBr)S2)cc1 (stereo unspecified) | inactive: -3.45%
COc1cc(C2NCCC3(OCCO3)C2(C)C)cc(OC)c1OC (stereo unspecified) | inactive: -16%
CCOP(=O)(Nc1cccc2ccccc12)OCC | inactive: -10.1%
Nc1cccc2c([As](=O)(O)O)cccc12 | inactive: -30%
Cc1ccc(NCCc2c([N+](=O)[O-])cc([N+](=O)[O-])cc2[N+](=O)[O-])cc1 | inactive: 2.87%
Cc1cccc(OCC(=O)OC2CN3CCC2CC3)c1 (stereo unspecified) | inactive: -3.59%
O=[As](O)(c1cccc(O)c1)c1cccc(O)c1 | inactive: -8.08%
O=[As](O)(O)c1cccnc1 | inactive: -8.99%
COc1cc(C(=O)NCC2(N3CCOCC3)CCCCC2)cc(Cl)c1OC(C)C | inactive: -3.01%

SMILES | signal enhancement
O=C(OC1CN2CCC1CC2)c1ccc(Cl)cc1 (stereo unspecified) | inactive: -10.7%
O=[N+]([O-])c1ccc2c(c1)nnn2O | inactive: -13.7%
CCOP1(=S)c2c(C)nn(CCC#N)c2N=C(c2ccc(F)cc2)N1C (stereo unspecified) | inactive: -18.2%
CN(C(=O)Cc1ccccc1)[C@@H]1CC[C@]2(CCCO2)C[C@H]1N1CCCC1 | inactive: 0.3%
NC(=O)Nc1ccc([As](=O)(O)O)cc1 | inactive: -0.85%
O=C(O)COc1ccc([As](=O)(O)O)cc1[N+](=O)[O-] | inactive: -14.6%
Nc1ccccc1[As](=O)(O)c1ccccc1 | inactive: -14.3%
CS(=O)(=O)c1cc([N+](=O)[O-])c2no[n+]([O-])c2c1 | inactive: -8.49%
CCOP1(=S)c2c(C)nn(CCC#N)c2N=C(c2ccccc2F)N1C (stereo unspecified) | inactive: 2.68%
O=P(Nc1nccs1)(Oc1ccccc1)Oc1ccccc1 | inactive: -18%
O=P(Nc1nccs1)(c1ccccc1)c1nc2ccccc2s1 (stereo unspecified) | inactive: 6.83%
Cc1ccc(OCC(=O)OC2CN3CCC2CC3)cc1 (stereo unspecified) | inactive: -10.1%
O=P1(Nc2ccc(Br)cn2)COc2ccccc2OC1 | inactive: -14.8%
Nc1cccc([As](=O)(O)c2ccccc2)c1 | inactive: -6.24%
O=P1(Nc2ncccn2)COc2ccccc2OC1 | inactive: -9.58%
O=C(/C=C/c1ccccc1)OC1CN2CCC1CC2 (stereo unspecified) | inactive: 5.38%
CN(C)C1(CNC(=O)c2ccc(S(C)(=O)=O)cc2)CCCCC1 | inactive: -6.23%
Cc1nn(-c2ccccc2)c2c1P(=O)(N1CCOCC1)N(C)C(c1ccccc1)=N2 (stereo unspecified) | inactive: -18.2%
CC1CCC(C(C)C)C(OP(=O)(Nc2ccccn2)c2ccccc2)C1 (stereo unspecified) | inactive: -2.1%
O=[As](O)(c1ccccc1Br)c1ccccc1Br | inactive: -8.19%
CC(C)/C=N\N=C(\N)N[N+](=O)[O-] | inactive: 0.26%
Clc1n[nH]nc1-c1nn[nH][15n]1 | inactive: -8.22%
CC(C)(C)C(=O)NC(Sc1ncccn1)C(Cl)(Cl)Cl (stereo unspecified) | inactive: -15.3%
O=P1(Nc2ccccn2)COc2ccccc2OC1 | inactive: -7.05%
CCOC(=O)c1ccc(NC(=O)C(C)(CCl)SC)cc1 (stereo unspecified) | inactive: -3.28%

SMILES | signal enhancement
O=C(COc1ccccc1)OC1CN2CCC1CC2 (stereo unspecified) | inactive: -5.93%
COP1(=S)c2c(C)nn(CCC#N)c2N=C(c2ccc(F)cc2)N1C (stereo unspecified) | inactive: 4.48%
O=[N+]([O-])c1ccc(Nc2ccc(Oc3ccc([N+](=O)[O-])cc3[N+](=O)[O-])cc2)c([N+](=O)[O-])c1 | inactive: -6.89%
Cc1cc(SC(NC=O)C(Cl)(Cl)Cl)ncn1 (stereo unspecified) | inactive: -17%
O=P(Nc1ccccn1)(c1cccc2ccccc12)c1cccc2ccccc12 | inactive: -12.8%
CCOC(=O)Nc1cccc([As](=O)(O)O)c1 | inactive: -13%
Cc1cc(SC(NC(=O)c2ccccc2)C(Cl)(Cl)Cl)nc(C(C)C)n1 (stereo unspecified) | inactive: -12%
CCOC(=O)Nc1ccc([As](=O)(O)O)c(O)c1 | inactive: 2.93%
CC(C)NC(=O)NP(=O)(Oc1ccccc1)Oc1ccccc1 | inactive: -8.78%
CCN(CC)C(=S)SC(NC=O)C(Cl)(Cl)Cl (stereo unspecified) | inactive: 5.86%
O=[N+]([O-])c1cc([N+](=O)[O-])c(-c2ccn[nH]2)s1 | inactive: 2.55%
CC(C)c1ccc(OP(=O)(Nc2ccccn2)Oc2ccccc2F)cc1 (stereo unspecified) | inactive: -13.7%
Cc1ccc2nc3c(c(C)c2c1)CC(C(Cl)Cl)S3 (stereo unspecified) | inactive: -7.36%
Cc1ccc(OP(=O)(Nc2ccc([N+](=O)[O-])cn2)Oc2ccc(C)cc2)cc1 | inactive: -8.42%
C[As](=O)(O)c1cccc(C(=O)O)c1 | inactive: -1.71%
O=[As](O)(c1ccc(O)cc1)c1ccccc1O | inactive: -12.7%
COc1ccc(N/C(=N/P(=O)(N2CCOCC2)N2CCOCC2)N2CCOCC2)cc1 | inactive: -2.28%
COc1ccc2nc(NP(=O)(c3ccccc3)c3ccccc3)sc2c1 | inactive: -19.4%
COc1cc(I)ccc1[As](=O)(O)O | inactive: -5.63%
O=C(OC1CN2CCC1CC2)C12CC3CC(CC(C3)C1)C2 (stereo unspecified) | inactive: 8.36%
Cc1cc(=O)[nH]c(N[N+](=O)[O-])n1 | inactive: -3.17%
